The values that follow are results of earlier work, collected in PMC5570449.

Protein sequences, listed by entry. Tags and fused reporters are not part of them. Residues count along the entry.
UniProt Q96RL1, 102-127: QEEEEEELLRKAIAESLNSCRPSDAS
UniProt Q96RL1, 77-102: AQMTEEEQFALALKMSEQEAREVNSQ

For data set [1], the target named is ubiquitin (Homo sapiens) (UniProt P0CG48).
The target is the same in data set [2]. The source holds these as a separate data set.

Like-named read-outs stand apart in the source and are kept apart here.

As to RAP80 UIM2 UIM2 (from UniProt Q96RL1), the Kd in the data set with ubiquitin (Homo sapiens) [1] was 510 µM.

In the case of RAP80 UIM1 UIM1 (from UniProt Q96RL1), the equilibrium dissociation constant (Kd) with ubiquitin (Homo sapiens) [2] is 520 µM.
